Apparent affinities of Ab-14 variants for a coronavirus HR2 peptide

Binding partner: SARS-CoV-2 spike HR2 peptide, sequence PDVDLGDISGINAS.

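The starting antibody came from a phage panning campaign against this peptide. This is the validation round: designs drawn from the data on random variants, tested in the same kind of assay. Their group label is 14L_GP_Gibbs (GP: Gaussian process model; Gibbs: Gibbs sampling; a sequence that several methods proposed may carry one label only). The scFvs were displayed on barcoded MATa yeast, the peptide on MATalpha yeast. After mating in shaken culture at 30 °C for 16 h, diploids were selected and their barcode pairs sequenced. Read counts were normalised to the haploid input and turned into Kd by a linear fit to BCL2-family pairs of known affinity, for each replicate. The assay was run in six technical replicates.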

Parent: Ab-14, a human scFv built as VH, a (GGGGS)3 linker, VL. Only the CDRs of the light chain vary.
VH: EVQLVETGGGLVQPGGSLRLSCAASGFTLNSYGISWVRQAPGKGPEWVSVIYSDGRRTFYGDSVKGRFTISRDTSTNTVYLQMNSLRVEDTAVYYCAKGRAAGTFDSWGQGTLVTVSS
VL: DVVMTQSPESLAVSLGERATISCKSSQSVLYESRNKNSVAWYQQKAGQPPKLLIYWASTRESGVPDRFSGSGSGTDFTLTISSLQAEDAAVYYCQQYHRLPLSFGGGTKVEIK

Variants are written as CDR1, CDR2 and CDR3 of the light chain (limits as in the source). Parent: KSSQSVLYESRNKNSVA, WASTRES, QQYHRLPLS.
Affinities are written as log10 Kd with Kd in nM; a lower number is a better binder.

{"CDR-L1": "KFSQMDLYESRNKNNVA", "CDR-L2": "DASTRSS", "CDR-L3": "QQYHRLPLS", "log10 Kd (nM) by replicate": "-0.19 -0.47 -0.53 -0.52 -0.61 -0.24", "empty controls": "0/18"}
{"CDR-L1": "KSSQSDLYESRNGNSVA", "CDR-L2": "NASTRED", "CDR-L3": "QQYHRLPLS", "log10 Kd (nM) by replicate": "0.26 0.29 0.10 -0.11 0.01 0.21", "empty controls": "2/18 (2.97)"}
{"CDR-L1": "KLQWSNLYQSRNKNSVA", "CDR-L2": "QASTRMM", "CDR-L3": "QQYHRLPLS", "log10 Kd (nM) by replicate": "1.17 1.06 1.19 0.78 0.90 0.82", "empty controls": "0/18"}
{"CDR-L1": "KCAQGWLYESRNKNSVA", "CDR-L2": "NASQREH", "CDR-L3": "QQYHRLPLS", "log10 Kd (nM) by replicate": "-0.02 -0.11 -0.16 -0.34 -0.20 0.07", "empty controls": "0/18"}
{"CDR-L1": "KLQNSMLYESRNDNSVA", "CDR-L2": "DASKRES", "CDR-L3": "QQYHRLPLS", "log10 Kd (nM) by replicate": "0.21 0.18 0.13 -0.05 0.14 0.34", "empty controls": "2/18 (2.69)"}
{"CDR-L1": "KLSQSWLYESRNSMSVA", "CDR-L2": "DASTRLS", "CDR-L3": "QQYHRLPLS", "log10 Kd (nM) by replicate": "-0.09 -0.18 -0.38 -0.56 -0.29 -0.17", "empty controls": "0/18"}
{"CDR-L1": "KLSASWLYGKRNKNSVA", "CDR-L2": "QASQRCS", "CDR-L3": "QQYHRLPLS", "log10 Kd (nM) by replicate": "0.94 1.10 0.87 0.61 0.56 1.01", "empty controls": "2/18 (2.99)"}
{"CDR-L1": "KVSQSVEMQQRNPNSVA", "CDR-L2": "SASTRLS", "CDR-L3": "QQYHRLPLS", "log10 Kd (nM) by replicate": "-0.06 -0.01 -0.28 -0.23 -0.23 0.04", "empty controls": "1/18 (2.27)"}
{"CDR-L1": "KIFQSVQYESRQKNSVA", "CDR-L2": "NASDRMS", "CDR-L3": "QQYHRLPLS", "log10 Kd (nM) by replicate": "0.16 0.01 -0.10 -0.36 -0.05 0.26", "empty controls": "1/18 (2.38)"}
{"CDR-L1": "KVSWSWLYESRNWNSVA", "CDR-L2": "NASLRES", "CDR-L3": "QQYHRLPLS", "log10 Kd (nM) by replicate": "0.23 0.47 0.38 0.14 0.33 0.43", "empty controls": "0/18"}
{"CDR-L1": "AVDFSWLYESRNKNSVA", "CDR-L2": "NASTREQ", "CDR-L3": "QQYHRLPLS", "log10 Kd (nM) by replicate": "0.10 -0.30 0.26 -0.06 -0.22 -0.43", "empty controls": "0/18"}
{"CDR-L1": "KSSCAVYYGDRNKMSVA", "CDR-L2": "DASTRES", "CDR-L3": "QQYHRLPLS", "log10 Kd (nM) by replicate": "0.79 0.38 0.75 0.79 0.38 0.87", "empty controls": "0/18"}
{"CDR-L1": "KLQNSYEYESRMKNSVA", "CDR-L2": "NASTRLE", "CDR-L3": "QQYHRLPLS", "log10 Kd (nM) by replicate": "0.11 0.04 -0.09 -0.19 -0.04 -0.07", "empty controls": "1/18 (1.52)"}
{"CDR-L1": "KYSQSDEYESRQFNSVA", "CDR-L2": "NASTRLM", "CDR-L3": "QQYHRLPLS", "log10 Kd (nM) by replicate": "0.44 0.27 0.07 -0.13 0.08 0.29", "empty controls": "0/18"}
{"CDR-L1": "KFQQSELYEKRNQNSVA", "CDR-L2": "SASYRLS", "CDR-L3": "QQYHRLPLS", "log10 Kd (nM) by replicate": "0.14 0.18 0.00 -0.11 -0.01 0.16", "empty controls": "2/18 (2.95)"}
{"CDR-L1": "KLSNMQEYESRWKNSVA", "CDR-L2": "NASTREL", "CDR-L3": "QQYHRLPLS", "log10 Kd (nM) by replicate": "1.00 0.86 0.57 0.30 0.88 1.07", "empty controls": "0/18"}
{"CDR-L1": "KLSNSVWMESRNKNQVA", "CDR-L2": "EASKRES", "CDR-L3": "QQYHRLPLS", "log10 Kd (nM) by replicate": "0.10 0.24 -0.06 -0.21 -0.16 0.01", "empty controls": "2/18 (2.56)"}
{"CDR-L1": "KLSQSVGYESRLKNNVA", "CDR-L2": "NASQRLE", "CDR-L3": "QQYHRLPLS", "log10 Kd (nM) by replicate": "0.29 0.20 0.23 0.07 0.15 0.30", "empty controls": "2/18 (2.84)"}
{"CDR-L1": "KLQQWVLYEGRNKNSVA", "CDR-L2": "QASQRSD", "CDR-L3": "QQYHRLPLS", "log10 Kd (nM) by replicate": "-0.03 -0.24 -0.07 -0.21 -0.03 -0.08", "empty controls": "0/18"}
{"CDR-L1": "KLSQSFLYEERNPNSVA", "CDR-L2": "NASKREL", "CDR-L3": "QQYHRLPLS", "log10 Kd (nM) by replicate": "0.08 -0.07 -0.28 -0.22 0.04 0.20", "empty controls": "2/18 (2.58)"}
{"CDR-L1": "KLMMSGLYESRNSNSVA", "CDR-L2": "NASTREQ", "CDR-L3": "QDYHRLPLS", "log10 Kd (nM) by replicate": "0.50 0.09 0.06 0.05 0.34 0.36", "empty controls": "1/18 (2.40)"}
{"CDR-L1": "KLSMSVQYEARMKNSVA", "CDR-L2": "EASTRED", "CDR-L3": "QQYHRLPLS", "log10 Kd (nM) by replicate": "0.01 0.23 0.03 0.09 -0.11 0.04", "empty controls": "0/18"}

Repeated from above, the 3 best binders with a signal in all replicates:

CDR-L1	CDR-L2	CDR-L3	log10 Kd (nM) by replicate	empty controls
KFSQMDLYESRNKNNVA	DASTRSS	QQYHRLPLS	-0.19 -0.47 -0.53 -0.52 -0.61 -0.24	0/18
KLSQSWLYESRNSMSVA	DASTRLS	QQYHRLPLS	-0.09 -0.18 -0.38 -0.56 -0.29 -0.17	0/18
KVSQSVEMQQRNPNSVA	SASTRLS	QQYHRLPLS	-0.06 -0.01 -0.28 -0.23 -0.23 0.04	1/18 (2.27)

Values of this round are not directly comparable with the first-round values of the same sequences.
The authors averaged sequences with at least three values out of six and counted those with two or fewer as poor binders.
Of ten entries with the parent sequence, four were seen in most replicates (averages 0.34 to 2.37), three in one and three in none, so single entries are noisy.
Nonspecific signal, from three strains lacking the peptide, appeared in 4% of pairings of all light chain designs, centred on 2.64 (5% of these signals below 1.59); values are not corrected for it. The control count says in how many pairings with the empty strains this scFv gave a signal, with their mean in brackets.

From the AlphaSeq antibody data of Li et al. 2023 (doi:10.1038/s41467-023-39022-2), copy in the FLAb collection.